# Antibody variant affinities, Ab-95 light chain, assay 2

Target peptide (SARS-CoV-2 spike, HR2 region): PDVDLGDISGINAS

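The starting antibody came from a phage panning campaign against this peptide. Library AAYL52 holds single substitutions and randomly drawn double and triple substitutions in the CDRs. The assay is AlphaSeq: two haploid yeast populations carry antibody and antigen on their surface. After mating in shaken culture at 30 °C for 16 h, diploids were selected and their barcode pairs sequenced. Read counts were normalised to the haploid input and turned into Kd by a linear fit to BCL2-family pairs of known affinity, for each replicate. Each pool was mated in three replicate cultures.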

Parent scFv Ab-95: VH joined to VL by a (GGGGS)3 linker. Changes lie in the light chain CDRs alone.
VH: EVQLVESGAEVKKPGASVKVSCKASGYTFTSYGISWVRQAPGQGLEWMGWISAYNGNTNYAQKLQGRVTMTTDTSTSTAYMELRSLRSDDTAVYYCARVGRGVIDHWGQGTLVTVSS
VL: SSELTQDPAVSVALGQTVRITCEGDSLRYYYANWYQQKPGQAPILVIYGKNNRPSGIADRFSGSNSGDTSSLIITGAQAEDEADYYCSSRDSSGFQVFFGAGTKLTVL

Each variant is given by its three light chain CDRs, as the data file delimits them; those of the parent are EGDSLRYYYAN, GKNNRPS, SSRDSSGFQVF.
Values are log10 of the apparent Kd in nM; lower means stronger binding.
Replicates are averaged; those with no signal do not enter the mean.
A pair that was not seen in that replicate is written "nd"; this usually means weak binding, but a binder can also be missed.
Background: pairings of library AAYL52 with three empty control strains gave a value in 28% of cases (median 3.91, 5th percentile 2.90). Values in that range, when seen in few replicates, are hard to tell from nonspecific mating. For each scFv, signals with the empty controls are counted beside the result, with their mean in brackets.

CDR-L1 | CDR-L2 | CDR-L3 | replicates, log10 nM | mean log10 Kd (nM) | control signals
EGDSLVYYYAN | GKTNRPS | SSRDKSGFQVF | nd / 3.23 / 4.06 | 3.65 | 0 of 9
EGDSLRYYYAN | GKYNRPA | SSRDSSGFQVV | nd / 5.88 / nd | 5.88 | 1 of 9 (4.09)
EGDSLRYHYAN | GKNNRPS | SARDSSGFQVF | 1.04 / 1.07 / 0.40 | 0.84 | 7 of 9 (3.89)
EGDSLRYYKAI | GKNNRPS | SSRDSSGFQVF | nd / 5.28 / 3.61 | 4.44 | 0 of 9
EGDILRLYYAN | GKNNRPS | SSRDSSGEQVF | nd / nd / nd | nd | 3 of 9 (3.20)
EGDVLRYYYAN | GKNNRPS | DERDSSGFQVF | nd / 4.10 / nd | 4.10 | 1 of 9 (4.11)
EGDSLRYYYAN | GKNNFPS | SSRDSSGFQVT | nd / nd / nd | nd | 4 of 9 (4.05)
EGDSLFYYYAN | CKNNRPS | SSRDSSGWQVF | 3.42 / nd / nd | 3.42 | 4 of 9 (4.09)
EYQSLRYYYAN | GKYNRPS | SSRDSSGFQVF | 3.01 / nd / 2.93 | 2.97 | 2 of 9 (4.63)
EGDSLRYYPAK | GKNNRPS | SSRDSSGFQVW | 4.64 / nd / 3.76 | 4.20 | 1 of 9 (4.15)
EGDSLRYYYAR | GCNNRPS | SSRDSSGFQVF | 3.98 / 5.54 / nd | 4.76 | 6 of 9 (3.48)
EGDSLRNYYAN | GKNNPPS | SSRDSSGFQMF | 3.54 / nd / 3.71 | 3.63 | 1 of 9 (4.55)
EGDSLRYYKAN | GKNNRPS | SSRDSSGFQRF | 2.43 / 2.81 / 2.41 | 2.55 | 1 of 9 (3.34)
EGDSLKYYYAN | GKNNRPS | SSRDSPGFQVY | nd / 5.44 / 4.10 | 4.77 | 3 of 9 (3.33)
EGDSLRYYIAN | GKNHRPS | SSRDSSSFQVF | 3.28 / nd / nd | 3.28 | 3 of 9 (3.96)
EGDSLRYAYRN | GKNNRPS | SSRDSSGGQVF | 4.69 / nd / 4.33 | 4.51 | 7 of 9 (3.51)
YGDSLRYYYAN | GKNNRPN | SSRDSSMFQVF | 3.11 / nd / nd | 3.11 | 3 of 9 (4.00)
EGDSLRYYYAN | FKNERPS | SSADSSGFQVF | nd / nd / nd | nd | 0 of 9
EGDSLRYYCAN | GVNNRPS | MSRDSSGFQVF | 2.00 / 1.75 / 1.62 | 1.79 | 1 of 9 (2.87)
EGDSLRYYYAN | YKNNRPS | SSRDSSRFQVS | 4.07 / 4.69 / nd | 4.38 | 1 of 9 (4.31)
EGDSLRYYRDN | GKNNRPS | SSRDSSGFQVG | 4.05 / nd / 4.23 | 4.14 | 2 of 9 (3.94)
EGDSLRHYYAN | GKNNRPS | SSRDSSLFQVA | 4.05 / 4.35 / 2.11 | 3.50 | 2 of 9 (4.34)
EGDSLRVYYGN | GKNNRPS | SSRSSSGFQVF | 2.30 / 2.17 / 2.04 | 2.17 | 1 of 9 (3.66)
EGDQLRYYYAN | GKNNRPS | SFRDESGFQVF | nd / nd / nd | nd | 0 of 9
EGDSLRAYYSS | GKNNRPS | SSRDSSGFQVF | 3.46 / 2.92 / nd | 3.19 | 4 of 9 (4.24)
EGDSLRYYYSN | GVNNRPS | SSRDSSGFQVD | 3.70 / nd / 4.16 | 3.93 | 1 of 9 (3.30)
EGESLRYYYAV | GKNNRPS | SSRPSSGFQVF | nd / nd / 4.10 | 4.10 | 1 of 9 (3.83)
EGRSLRYYYAN | GKNNLPS | SSADSSGFQVF | 3.14 / 3.95 / nd | 3.55 | 3 of 9 (3.75)
ENDSLWYYYAY | GKNNRPS | SSRDSSGFQVF | nd / nd / nd | nd | 6 of 9 (3.89)
EGVSLRYYYAN | GKENRPS | SSRDSSGFEVF | 3.12 / 3.78 / 3.10 | 3.33 | 1 of 9 (3.99)
EGDSLRYYYAN | GKNNRPS | SSRDSSGAQDF | 2.49 / 2.03 / 1.41 | 1.98 | 4 of 9 (3.91)
EGDSLRYYYAY | GKNNRPS | SSANSSGFQVF | 3.42 / nd / nd | 3.42 | 1 of 9 (2.94)
YGDSLRYYKAN | GKNNRPS | SSRDSSGFQVE | 3.70 / 2.71 / 4.40 | 3.60 | 3 of 9 (3.52)
EGDSLRAYYAY | GKNNRPN | SSRDSSGFQVF | 3.94 / nd / nd | 3.94 | 1 of 9 (3.96)
EGDSLRYYYYN | GWNNRPS | SSRDSSGFQWF | 4.37 / 3.47 / nd | 3.92 | 3 of 9 (3.93)
EGDELRYYYAN | GKNNRPS | SNHDSSGFQVF | 3.53 / 3.69 / nd | 3.61 | 5 of 9 (3.60)
QGDSLRGYSAN | GKNNRPS | SSRDSSGFQVF | 0.90 / 0.88 / 0.25 | 0.67 | 6 of 9 (5.03)
SGDALRYYWAN | GKNNRPS | SSRDSSGFQVF | 1.84 / 2.11 / 1.78 | 1.91 | 1 of 9 (3.07)

Excerpt, the first 3 entries:

CDR-L1 | CDR-L2 | CDR-L3 | replicates, log10 nM | mean log10 Kd (nM) | control signals
EGDSLVYYYAN | GKTNRPS | SSRDKSGFQVF | nd / 3.23 / 4.06 | 3.65 | 0 of 9
EGDSLRYYYAN | GKYNRPA | SSRDSSGFQVV | nd / 5.88 / nd | 5.88 | 1 of 9 (4.09)
EGDSLRYHYAN | GKNNRPS | SARDSSGFQVF | 1.04 / 1.07 / 0.40 | 0.84 | 7 of 9 (3.89)

For reference, the parent read 2.31 as the reference entry and 2.25 as a member of this library.

Data: MIT Lincoln Laboratory AlphaSeq set, Engelhart et al. 2022, doi:10.1038/s41597-022-01779-4, as distributed in FLAb.